This test addresses SARS-CoV-2 PLpro (Severe acute respiratory syndrome coronavirus 2, UniProt P0DTD1). Kind of test: PLpro kinetic inhibition assay, cleavage of AMC peptide mimicking the C-terminus of human ISG15. In kind it is biochemical.

For `COc1cc(O)c(CC=C(C)C)c(O)c1C(=O)/C=C/c1ccc(O)cc1` [XN, xanthohumol], the “inhibitory effect on PLpro (in words)” value was “lowest inhibitory effect”.

The values above are taken from EP4162932A1, “ANTIVIRAL HOP CONSTITUENTS” (HHV Hallertauer Hopfenveredelungsgesellschaft mbH, priority 2021, dated 2023).
